Values quoted from earlier work in patent publication US8889627B2 (Teva Pharmaceutical Industries, Ltd., priority 2011, dated 2014).

Protein sequences, listed by entry. Tags and fused reporters are not part of them.
UniProt Q99500, whole entry, species assumed: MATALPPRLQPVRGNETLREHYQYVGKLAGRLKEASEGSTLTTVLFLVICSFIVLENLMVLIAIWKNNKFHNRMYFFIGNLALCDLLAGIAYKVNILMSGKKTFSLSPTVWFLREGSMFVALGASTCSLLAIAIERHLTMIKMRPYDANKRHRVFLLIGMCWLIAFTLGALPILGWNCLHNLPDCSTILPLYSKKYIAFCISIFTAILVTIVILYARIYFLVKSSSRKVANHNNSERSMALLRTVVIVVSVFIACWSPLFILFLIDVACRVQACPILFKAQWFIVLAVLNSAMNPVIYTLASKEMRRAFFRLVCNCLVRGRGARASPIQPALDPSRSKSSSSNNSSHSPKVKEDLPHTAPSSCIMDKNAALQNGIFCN
UniProt P21453, whole entry, species assumed: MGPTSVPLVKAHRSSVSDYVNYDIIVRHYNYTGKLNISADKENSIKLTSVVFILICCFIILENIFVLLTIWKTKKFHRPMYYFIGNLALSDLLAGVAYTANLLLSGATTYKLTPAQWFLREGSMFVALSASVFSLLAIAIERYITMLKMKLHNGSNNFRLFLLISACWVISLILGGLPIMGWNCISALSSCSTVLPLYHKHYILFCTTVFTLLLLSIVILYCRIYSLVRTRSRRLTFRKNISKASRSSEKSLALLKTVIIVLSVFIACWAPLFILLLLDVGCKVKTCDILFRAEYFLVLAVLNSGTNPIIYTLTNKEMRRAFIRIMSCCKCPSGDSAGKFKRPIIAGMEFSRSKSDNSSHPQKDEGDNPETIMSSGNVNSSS

How the values were obtained:
S1PR3 = S1PR3 (Homo sapiens, UniProt Q99500); conditions: cited from earlier work
S1PR-1 = S1PR-1 (Homo sapiens, UniProt P21453); conditions: cited from earlier work

In the case of `CCCCCCCCc1ccc(CCC(N)(CO)COP(=O)(O)O)cc1` (centres unmarked) [Fingolimod-phosphate], the “binding affinity (in words)” value (S1PR3) is given as “high affinity” and the “binding affinity (in words)” value (S1PR-1) is given as “high affinity”.
